{"sequences": {"note": "Protein sequences, listed by entry. Tags and fused reporters are not part of them.", "UniProt P15056, whole entry V600E": "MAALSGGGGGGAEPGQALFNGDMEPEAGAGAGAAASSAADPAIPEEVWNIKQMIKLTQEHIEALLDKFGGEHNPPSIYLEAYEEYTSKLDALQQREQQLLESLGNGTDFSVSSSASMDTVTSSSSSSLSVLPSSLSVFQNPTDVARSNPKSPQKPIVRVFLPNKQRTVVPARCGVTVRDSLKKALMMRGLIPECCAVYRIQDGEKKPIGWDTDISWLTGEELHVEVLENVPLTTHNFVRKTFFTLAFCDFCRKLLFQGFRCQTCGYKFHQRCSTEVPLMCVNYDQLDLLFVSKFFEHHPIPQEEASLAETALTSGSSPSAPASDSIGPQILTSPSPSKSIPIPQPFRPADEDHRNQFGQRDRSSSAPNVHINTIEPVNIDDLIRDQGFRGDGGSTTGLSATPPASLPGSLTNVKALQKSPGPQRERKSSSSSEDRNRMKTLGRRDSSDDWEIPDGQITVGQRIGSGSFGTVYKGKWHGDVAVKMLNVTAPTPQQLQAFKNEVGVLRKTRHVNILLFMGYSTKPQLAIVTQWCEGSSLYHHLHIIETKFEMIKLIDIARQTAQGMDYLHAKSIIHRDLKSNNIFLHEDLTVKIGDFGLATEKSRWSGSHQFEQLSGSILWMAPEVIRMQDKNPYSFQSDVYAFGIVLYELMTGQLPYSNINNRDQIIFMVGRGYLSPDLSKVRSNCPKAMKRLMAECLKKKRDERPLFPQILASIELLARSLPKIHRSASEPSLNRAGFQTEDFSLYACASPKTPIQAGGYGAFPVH"}, "source": "patent US12559492B2", "about": "“BRAF degraders” (C4 Therapeutics, Inc., priority 2020, dated 2026)", "target": "BRAF^V600E protein (Homo sapiens, UniProt P15056, V600E)", "assay": "HiBiT cellular BRAF V600E degradation assay", "settings": "24 h incubation, tested form: TFA", "from_the_text": "DMEM no-phenol red medium supplemented with L-glutamine was purchased from (Corning). Fetal bovine serum (FBS) was purchased from Gibco (Grand Island, NY, USA). Nano-Glo® HiBiT Lytic Assay Buffer & Reagents were purchased from Promega (Madison, WI, USA). A375 (harboring BRAF homozygous V600E mutation) was purchased from ATCC. A375.10 cell line was generated from A375 cell line from ATCC by knocking-in a HiBiT tag at the N-terminal of BRAF^V600E protein via CRISPR technology. Cell culture flasks and 384-well black flat-bottom polystyrene TC-treated microplates were acquired from Corning (Corning, NY, USA).\nHiBiT Cellular BRAFv^600E Degradation Assay\nPrior to the assay, the A375.10 cell line is maintained in DMEM no-phenol red medium supplemented with 10% fetal bovine serum (FBS). Following compound treatment, BRAF^V600E degradation was determined based on quantification of HiBiT luminescence signal by lysing the cells followed by addition of Nano-Glo® HiBiT Lytic Assay Reagents. The luminescence signal detected correlates with the total BRAF^V600E protein level in cells. […] After the desired incubation time with compound, 30 uL of Nano-Glo® HiBiT Lytic Buffer containing LgBiT protein (diluted 1:100) and luminescence substrate (diluted 1:50) were added to the cells in columns 1-23 of the assay plate. […]"}
{"smiles": "CCN(C)S(=O)(=O)Nc1ccc(F)c(C(=O)c2c[nH]c3ncc(-c4cnc(N5CCC(NC(=O)N6CCC(c7ccc(NC8CCC(=O)NC8=O)cc7)CC6)CC5)nc4)cc23)c1F", "note": "(centres unmarked)", "values": [{"measurement": "HiBit 24 h Emax", "setting": "A375.10 cells, Emax = amount of residual protein remaining in the cell after compound treatment", "result": 19.33, "unit": "%"}, {"measurement": "DC50", "setting": "read-out: HiBit 24 h DC50, A375.10 cells (HiBiT tag knocked in at N-terminal of BRAF V600E), concentration at which 50% of total cellular BRAF V600E is degraded", "result": 6.93, "unit": "nM"}]}
